From patent US20110275673A1, “INHIBITORS OF SPHINGOSINE KINASE 1” (priority 2008, published 2011)

Protein sequences, listed by entry. Tags and fused reporters are not part of them.
UniProt Q9NYA1, whole entry: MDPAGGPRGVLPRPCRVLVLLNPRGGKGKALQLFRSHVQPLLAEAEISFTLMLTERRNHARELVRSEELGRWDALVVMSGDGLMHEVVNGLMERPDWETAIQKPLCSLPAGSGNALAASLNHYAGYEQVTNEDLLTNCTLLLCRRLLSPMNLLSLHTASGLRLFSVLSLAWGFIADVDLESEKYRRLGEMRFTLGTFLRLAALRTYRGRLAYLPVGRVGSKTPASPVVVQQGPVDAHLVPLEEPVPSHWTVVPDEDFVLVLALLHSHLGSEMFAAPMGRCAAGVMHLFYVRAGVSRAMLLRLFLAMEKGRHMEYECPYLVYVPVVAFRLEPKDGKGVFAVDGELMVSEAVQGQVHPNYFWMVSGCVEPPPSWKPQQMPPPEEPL

Molecular target: T1, SPHK-1 (Homo sapiens, UniProt Q9NYA1)
T1 construct: purchased BPS Bioscience
Assay: Reporter Assay: sphingosine kinase conversion of fluorescein-labeled sphingosine, read on Lab Chip 3000
Format: biochemical
Settings: 2 μM Fl-sphingosine, 25 μM ATP, 300 ng/ml SK1, 1 hour at room temperature; from percent conversion of substrate to product; read-out: SPHK-1 IC50 (n =)
Description: Sphingosine kinase is a 49 kDa enzyme that catalyzes the formation of sphingosine-1-phosphate (S-1-P) from sphingosine.
Fluorescein labeled sphingosine was obtained from Echelon Biosciences (S-100F). Buffer reagents (1 M Hepes, 10 triton x-100, 100% glycerol, dithiothreitol 1 M MgCl2, ATP, 500 mM EDTA and DMSO) were purchased from Sigma. Coating reagent (CR-3), was obtained from Caliper Life Sciences.
0.05% Triton X-100, 2.5% glycerol, 0.1% CR-3, and 0,6% DMSO. Termination butler included 100 mM Hepes (pH 7.5), 40 mM EDTA, 0.05% Triton X-100, 2.5% glycerol, 0.3% CR-3, and 0.6% DMSO.
All assay components were made in reaction buffer. […] The assaylvas allowed to incubate at room temperature sealed and protected from light for 1 hour.
After 1 hour, 10 μl of termination buffer was added to terminate, the reaction, and the plate was read on a Lab Chip 3000. The plate was read for one cycle. The Lab Chip separated substrate and product based on charge.
Results were calculated based on percent conversion of substrate to product using the following formula: […]
Percent inhibition and IC50's for compounds of the invention were determined using the percent conversion values obtained horn the Lab Chip.

Row | IC50 | SMILES
1 | 3.2 µM | CCCCCCCCc1ccc(NC(=O)[C@@H](N)[C@H](O)CC)cc1 (racemic) [Example 5, (±)-erythro-DL-2-Amino-3-hydroxy-N-(4-octylphenyl) pentanamide]
2 | 3.5 µM | CCCCCCCCc1ccc(CNC(=O)[C@@H](N)CCO)cc1 [Example 57, (S)-2-Amino-4-hydroxy-N-(4-octylbenzyl)butanamide]
